{"source": "paper PMC10164576", "about": "“Interaction with the carboxy-terminal tip of SSB is critical for RecG function in E. coli” (Nucleic Acids Research, 2023)", "binders": {"B1": {"name": "single-stranded DNA-binding protein (SSB), full-length wildtype (natural protein, E. coli, UniProt P0AGE0 1-178, looked up)", "chain": "MASRGVNKVILVGNLGQDPEVRYMPNGGAVANITLATSESWRDKATGEMKEQTEWHRVVLFGKLAEVASEYLRKGSQVYIEGQLRTRKWTDQSGQDRYTTEVVVNVGGTMQMLGGRQGGGAPAGGNIGGGQPQGGWGQPQQPQGGNQFSGGAQSRPQQSAPAAPSNEPPMDFDDDIPF", "notes": "all concentrations and the stoichiometry are per monomer; also called full-length SSB; WT SSB"}}, "key": {"[1]": {"target": "T1, RecG DNA helicase, wildtype (E. coli, UniProt P24230 1-693)", "T1 construct": "RecG DNA helicase, E. coli, expressed from overexpression plasmid pEAW111; No tag is mentioned; also called WT RecG; source: E. coli STL2669/pT7pol26 with pEAW111, purified (ammonium sulfate, DEAE, Source 15Q, Source 15S)", "T1 sequence (looked up)": "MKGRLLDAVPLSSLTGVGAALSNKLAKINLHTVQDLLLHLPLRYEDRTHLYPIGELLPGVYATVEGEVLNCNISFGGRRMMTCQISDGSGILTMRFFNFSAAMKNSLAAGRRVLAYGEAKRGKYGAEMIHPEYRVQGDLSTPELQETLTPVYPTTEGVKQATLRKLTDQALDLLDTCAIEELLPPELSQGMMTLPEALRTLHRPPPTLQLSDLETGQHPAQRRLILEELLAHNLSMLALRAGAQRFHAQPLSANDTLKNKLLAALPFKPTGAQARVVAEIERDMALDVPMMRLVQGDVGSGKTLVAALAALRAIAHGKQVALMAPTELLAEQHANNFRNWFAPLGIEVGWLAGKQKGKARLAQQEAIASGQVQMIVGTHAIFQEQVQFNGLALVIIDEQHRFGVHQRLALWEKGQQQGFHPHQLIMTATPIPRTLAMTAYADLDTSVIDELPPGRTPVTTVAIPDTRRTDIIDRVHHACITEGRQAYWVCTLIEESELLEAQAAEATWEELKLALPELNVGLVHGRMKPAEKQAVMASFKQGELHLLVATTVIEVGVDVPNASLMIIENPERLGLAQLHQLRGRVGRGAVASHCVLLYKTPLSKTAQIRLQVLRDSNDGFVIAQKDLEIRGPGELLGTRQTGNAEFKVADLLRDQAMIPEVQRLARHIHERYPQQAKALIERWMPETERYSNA", "assay": "ITC; SSB proteins or unlabeled peptides injected into RecG in the cell; 20 mM Tris-HCl pH 8.0, 150 mM NaCl, 10% glycerol, 1 mM EDTA, 1 mM β-mercaptoethanol; 25°C; one-site model; concentrations as monomers", "settings": "both partners purified"}, "[2]": {"target": "T2, RecG R95A (E. coli, UniProt P24230 1-693, R95A)", "T2 construct": "RecG DNA helicase, E. coli, R95A introduced into pEAW111 to give pEAW1324; The preparation included a very weak nickase contaminant; source: E. coli STL2669/pT7pol26 with pEAW1324, purified (same scheme as wildtype RecG)", "T2 sequence (looked up)": "T1 sequence (looked up) with R95A", "assay": "ITC; SSB proteins or unlabeled peptides injected into RecG in the cell; 20 mM Tris-HCl pH 8.0, 150 mM NaCl, 10% glycerol, 1 mM EDTA, 1 mM β-mercaptoethanol; 25°C; one-site model; concentrations as monomers", "settings": "both partners purified"}}, "note": "Positions count from the first letter of the chain named.", "data": [{"binder": "B1", "values": [{"measurement": "Kd", "setting": "[1]", "result": "2600 ± 400", "unit": "nM"}, {"measurement": "dH", "setting": "[1]", "result": "-3 ± 0.3", "unit": "kcal/mol"}, {"measurement": "stoichiometry N", "setting": "[1]", "result": "1.05 ± 0.07"}, {"measurement": "Kd", "setting": "[2]", "result": "1700 ± 700", "unit": "nM"}, {"measurement": "dH", "setting": "[2]", "result": "-2.1 ± 0.3", "unit": "kcal/mol"}]}]}
